The test concerns PC9 cells. Nature of the test: PC9 xenograft tumor growth and relapse. The conditions noted are these: treatments discontinued on day 30; antibodies 0.2 mg/mouse/injection once every three days, osimertinib 5 mg/kg/day. It counts as in vivo, CD1-nu/nu mice. The text has this: FIGS. 1A-G: Upregulation of AXL is essential for resistance and tolerance. (A) PC9 cells (2×10^6) were subcutaneously implanted in nude mice. […] Tumor volumes are presented (average ±SEM). (B) 3-4 mice from each group presented in A were euthanized when tumors reached 1,500 mm 3 Tumors were extracted and subjected to immunoblotting. Tubulin (TUB) served as the loading control. (C and D) AXL-overexpressing (C) and AXL-knockout PC9 cells (2×10^6, D), along with naïve cells, were subcutaneously implanted in mice. When tumors became palpable, mice were randomized and treated as in A. (E) Data were re-analyzed for AXL mRNA levels in 23 patients with EGFR+NSCLC. Specimens (total=53) were collected at several time points, prior to and after treatment with osimertinib. (F and G) AXL-overexpressing (OX; F) or AXL-knockout PC9 cells (KO; G), along with naïve cells, were untreated or treated with TKIs (1 or 3 μM). Drugs and media were refreshed on day 3 and 6. On day 9, remaining cells (DTPs) were fixed, stained and quantified. […] Tumor volume was estimated using vernier caliper measurements of the longest axis, a/mm, and the perpendicular axis, b/mm Volumes were calculated in accordance with the equation V=(4 π/3)×(a/2)^2×(b/2). […] Mice were sacrificed four weeks after injection, and the lungs were analyzed. Lung images were acquired, and the numbers of micro-metastases or nodules were quantified.

cetuximab: the “tumor relapses after treatment” value is “better delayed relapses”.

For the origin of these results see US20240156959A1, “COMBINATION THERAPY FOR THE TREATMENT OF CANCER COMPRISING AN ANTl-EGFR ANTIBODY AND AN AXL-INHIBITOR” (Yeda Research and Development Co. Ltd., priority 2021, published 2024).
